From patent US9090628B2, “Benzoxazepin compounds selective for PI3K P110 delta and methods of use” (GENENTECH, INC., priority 2011, dated 2015) come the findings set out here.

Chains of the proteins cited; added tags and fusions are not shown. Lines headed by an entry give the natural chain unless they say otherwise; changes in a name come on top.
UniProt O00329: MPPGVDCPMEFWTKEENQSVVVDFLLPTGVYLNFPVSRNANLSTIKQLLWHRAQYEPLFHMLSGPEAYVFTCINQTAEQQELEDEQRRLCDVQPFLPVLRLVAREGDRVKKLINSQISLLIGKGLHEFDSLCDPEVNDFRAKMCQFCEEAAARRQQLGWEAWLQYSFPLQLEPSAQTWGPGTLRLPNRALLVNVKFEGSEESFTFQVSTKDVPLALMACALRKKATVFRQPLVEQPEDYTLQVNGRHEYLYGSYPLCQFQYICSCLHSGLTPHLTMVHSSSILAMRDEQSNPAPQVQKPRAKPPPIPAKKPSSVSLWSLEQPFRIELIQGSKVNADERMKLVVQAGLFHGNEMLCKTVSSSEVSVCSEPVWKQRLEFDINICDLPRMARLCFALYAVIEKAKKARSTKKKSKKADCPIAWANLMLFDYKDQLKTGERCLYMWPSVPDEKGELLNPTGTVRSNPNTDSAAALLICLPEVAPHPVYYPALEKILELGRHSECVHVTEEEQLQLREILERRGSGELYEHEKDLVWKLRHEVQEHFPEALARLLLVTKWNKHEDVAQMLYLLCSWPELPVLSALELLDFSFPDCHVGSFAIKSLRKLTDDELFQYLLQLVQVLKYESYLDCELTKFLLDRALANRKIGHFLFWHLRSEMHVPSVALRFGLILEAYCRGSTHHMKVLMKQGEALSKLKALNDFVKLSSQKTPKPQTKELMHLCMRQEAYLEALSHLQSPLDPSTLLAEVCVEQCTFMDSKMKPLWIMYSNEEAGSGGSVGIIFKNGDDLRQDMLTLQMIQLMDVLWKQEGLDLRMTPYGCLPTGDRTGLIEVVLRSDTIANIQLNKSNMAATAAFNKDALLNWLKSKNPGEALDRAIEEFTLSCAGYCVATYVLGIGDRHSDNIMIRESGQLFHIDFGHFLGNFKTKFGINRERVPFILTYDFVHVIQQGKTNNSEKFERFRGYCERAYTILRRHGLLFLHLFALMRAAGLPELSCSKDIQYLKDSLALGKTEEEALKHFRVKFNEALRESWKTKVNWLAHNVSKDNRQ
UniProt P42336, whole entry: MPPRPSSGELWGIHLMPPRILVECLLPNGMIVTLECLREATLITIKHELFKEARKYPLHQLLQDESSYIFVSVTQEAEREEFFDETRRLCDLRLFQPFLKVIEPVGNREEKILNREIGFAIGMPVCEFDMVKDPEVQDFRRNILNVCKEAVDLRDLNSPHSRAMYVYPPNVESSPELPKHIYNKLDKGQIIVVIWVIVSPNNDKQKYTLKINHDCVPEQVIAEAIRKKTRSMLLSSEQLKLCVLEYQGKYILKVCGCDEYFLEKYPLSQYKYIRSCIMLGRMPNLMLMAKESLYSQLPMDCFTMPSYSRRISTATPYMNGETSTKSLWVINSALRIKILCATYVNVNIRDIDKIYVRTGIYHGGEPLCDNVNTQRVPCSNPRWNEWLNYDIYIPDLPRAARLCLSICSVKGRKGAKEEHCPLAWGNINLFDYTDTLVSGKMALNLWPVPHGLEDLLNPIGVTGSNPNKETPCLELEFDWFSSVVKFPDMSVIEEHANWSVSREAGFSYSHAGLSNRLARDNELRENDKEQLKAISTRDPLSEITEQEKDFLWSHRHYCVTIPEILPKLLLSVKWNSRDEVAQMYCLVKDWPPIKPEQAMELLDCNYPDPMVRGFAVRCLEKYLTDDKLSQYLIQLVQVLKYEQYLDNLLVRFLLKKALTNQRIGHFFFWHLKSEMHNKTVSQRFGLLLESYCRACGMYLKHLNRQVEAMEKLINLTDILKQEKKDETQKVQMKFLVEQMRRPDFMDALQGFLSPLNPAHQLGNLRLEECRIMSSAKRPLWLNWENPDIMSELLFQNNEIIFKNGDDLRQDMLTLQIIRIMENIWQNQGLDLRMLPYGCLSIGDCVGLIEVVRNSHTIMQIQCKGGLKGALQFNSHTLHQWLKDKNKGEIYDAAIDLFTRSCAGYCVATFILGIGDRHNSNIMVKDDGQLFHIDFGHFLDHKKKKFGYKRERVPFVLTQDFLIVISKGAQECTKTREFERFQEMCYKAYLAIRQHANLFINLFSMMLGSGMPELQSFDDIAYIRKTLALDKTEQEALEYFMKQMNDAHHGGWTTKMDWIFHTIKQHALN

The structures appear in SMILES notation.

The target in one experiment is p110 delta (Homo sapiens (Human), UniProt O00329). Kind of experiment: PI3K isoform inhibition assay, p110 delta (fluorescence polarization displacement). It is filed as biochemical. The protocol:
(§1) PI3K enzymatic activity was assayed by measuring the amount of product phosphatidylinositol 3,4,5-phosphate (PIP3) formed from substrate 4,5 phosphatidylinositol 4,5-phosphate (PIP2) using a fluorescence polarization displacement assay. The decrease in fluorescence polarization of a fluorescent PIP3 probe is measured as it is displaced from a PIP3-binding protein GRP-1 detector by PI3K-catalyzed product. […] The kinase reactions were initiated by the addition of 40 ng/mL p110α/p85α, 300 ng/mL p110β/p85α, 40 ng/mL p110γ, or 40 ng/mL p110δ/p85α (Upstate Group, Millipore; Dundee, UK), and 10 μM PIP2 (Echelon Biosciences) to the wells. […] After 60 minutes of incubation at room temperature to allow equilibration of labeled and unlabeled PIP3 binding, the parallel and perpendicular components of the fluorescence emissions from each sample were measured at an excitation wavelength of 530 nm and an emission wavelength of 590 nm using an Envision fluorescent plate reader with a rhodamine filter (PerkinElmer Life and Analytical Sciences; Wellesley, Mass.). The assay is capable of detecting 0.1-2.0 μM PIP3 product. The IC50 values were obtained by fitting the dose-dependent inhibition data to a 4-parameter equation using Assay Explorer software (MDL, San Ramon, Calif.).
The Formula I compound was serially diluted in 100% DMSO. The kinase reaction was incubated for 1 h at room temperature, and the reaction was terminated by the addition of PBS. IC50 values were subsequently determined using sigmoidal dose-response curve fit (variable slope).
(§2) The four Class I PI 3-kinases are cloned into baculovirus vectors as follows: […]

A further experiment deals with p110 alpha (Homo sapiens (Human), UniProt P42336). Kind of experiment: PI3K isoform inhibition assay, p110 alpha (for alpha/delta selectivity). The note with it: ratio of biochemical IC50 values. The protocol:
as §1
The same protocol may be used to establish IC50 values for p110α (alpha) PI3K binding.
as §2

In general, IC50 refers to the midpoint of a concentration-inhibition curve. A low value points to inhibition by little substance. For the compound `Cc1nc(-c2cn3c(n2)-c2cnc(N4CCCC4C4CCCCN4C)cc2OCC3)n(CC(F)(F)F)n1` (centres unmarked) [Example 101, 2-(3-methyl-1-(2,2,2-trifluoroethyl)-1H-1,2,4-triazol-5-yl)-9-(2-(1-methylpiperidin-2-yl)pyrrolidin-1-yl)-5,6-dihydroimidazo[1,2-d]pyrido[3,4-f][1,4]oxazepine], the IC50 on p110 delta was found to be 0.102 nM. At p110 alpha, the “IC50 p110 alpha/IC50 p110 delta” value came to 18.6.

`Cc1nc(-c2cn3c(n2)-c2cnc(N4CCCC4C4CCCCN4C)cc2OCC3)n(CC(F)(F)F)n1` (centres unmarked) [Example 102, 2-(3-methyl-1-(2,2,2-trifluoroethyl)-1H-1,2,4-triazol-5-yl)-9-(2-(1-methylpiperidin-2-yl)pyrrolidin-1-yl)-5,6-dihydroimidazo[1,2-d]pyrido[3,4-f][1,4]oxazepine] gave an IC50 on p110 delta of 0.107 nM. Besides, the “IC50 p110 alpha/IC50 p110 delta” value on p110 alpha is listed as 17.3.

For `Cc1nc(-c2cn3c(n2)-c2cnc(N4CCCC4C4CCCCN4C)cc2OCC3)n(CC(F)(F)F)n1` (stereo not drawn) [Example 103, (cis)-2-(3-methyl-1-(2,2,2-trifluoroethyl)-1H-1,2,4-triazol-5-yl)-9-(2-(1-methylpiperidin-2-yl)pyrrolidin-1-yl)-5,6-dihydroimidazo[1,2-d]pyrido[3,4-f][1,4]oxazepine], the IC50 at p110 delta is 0.106 nM. Moreover, the “IC50 p110 alpha/IC50 p110 delta” value at p110 alpha was found to be 34.2.

Regarding `Cc1nc(-c2cn3c(n2)-c2cnc(N4CCCC4C4CCCCN4C)cc2OCC3)n(CC(F)(F)F)n1` (stereo not drawn) [Example 104, (trans)-2-(3-methyl-1-(2,2,2-trifluoroethyl)-1H-1,2,4-triazol-5-yl)-9-(2-(1-methylpiperidin-2-yl)pyrrolidin-1-yl)-5,6-dihydroimidazo[1,2-d]pyrido[3,4-f][1,4]oxazepine], on p110 alpha, the “IC50 p110 alpha/IC50 p110 delta” value came to 12.4.

With `Cc1nc(-c2cn3c(n2)-c2ccc(N4CCC[C@@H]4C4CCN(C(C)C)CC4)cc2OCC3)n(C(C)C)n1` [Example 263, (R)-2-(1-isopropyl-3-methyl-1H-1,2,4-triazol-5-yl)-9-(2-(1-isopropylpiperidin-4-yl)pyrrolidin-1-yl)-5,6-dihydrobenzo[f]imidazo[1,2-d][1,4]oxazepine], the “IC50 p110 alpha/IC50 p110 delta” value at p110 alpha was 37.5.

With `Cc1nc(-c2cn3c(n2)-c2ccc(-c4cnn(C)c4C4CCCN(C(C)C)C4)cc2OCC3)n(C(C)C)n1` (centres unmarked) [Example 279, 2-(2-isopropyl-5-methyl-1,2,4-triazol-3-yl)-9-[5-(1-isopropyl-3-piperidyl)-1-methyl-pyrazol-4-yl]-5,6-dihydroimidazo[1,2-d][1,4]benzoxazepine], the IC50 on p110 delta turned out to be 0.324 nM.

The compound `Cc1nc(-c2cn3c(n2)-c2ccc(-c4cnn(C)c4[C@@H]4CCCN(C(C)C)C4)cc2OCC3)n(C(C)C)n1` [Example 291, (R)-2-(1-isopropyl-3-methyl-1H-1,2,4-triazol-5-yl)-9-(5-(1-isopropylpiperidin-3-yl)-1-methyl-1H-pyrazol-4-yl)-5,6-dihydrobenzo[f]imidazo[1,2-d][1,4]oxazepine] gave an IC50 on p110 delta of 0.494 nM.

Compound `Cc1nc(-c2cn3c(n2)-c2ccc(-c4cnn(C)c4C4CC(N(C)C)CCO4)cc2OCC3)n(C(C)C)n1` (centres unmarked) [Example 295, 2-[4-[2-(2-isopropyl-5-methyl-1,2,4-triazol-3-yl)-5,6-dihydroimidazo[1,2-d][1,4]benzoxazepin-9-yl]-2-methyl-pyrazol-3-yl]-N,N-dimethyl-tetrahydropyran-4-amine] showed an IC50 at p110 delta of 0.721 nM.

Turning to `Cc1nc(-c2cn3c(n2)-c2cc([C@@H](C)N4CCN(C(C)(C)C)CC4)c(C)cc2OCC3)n(C(C)C)n1` [Example 299, (R)-10-(1-(4-tert-butylpiperazin-1-yl)ethyl)-2-(1-isopropyl-3-methyl-1H-1,2,4-triazol-5-yl)-9-methyl-5,6-dihydrobenzo[f]imidazo[1,2-d][1,4]oxazepine], the IC50 on p110 delta was 0.479 nM.

Take `Cc1nc(-c2cn3c(n2)-c2ccc(-c4cnn(C)c4C4CC(N(C)C)CCO4)cc2OCC3)n(C(C)C)n1` (centres unmarked) [Example 302, 2-[4-[2-(2-isopropyl-5-methyl-1,2,4-triazol-3-yl)-5,6-dihydroimidazo[1,2-d][1,4]benzoxazepin-9-yl]-2-methyl-pyrazol-3-yl]-N,N-dimethyl-tetrahydropyran-4-amine]: the IC50 on p110 delta was 1.65 nM.

On to `Cc1nc(-c2cn3c(n2)-c2ccc(N4CCC4C4CCN(C)CC4)cc2OCC3)n(C(C)C)n1` (centres unmarked) [Example 307, 2-(2-isopropyl-5-methyl-1,2,4-triazol-3-yl)-9-[2-(1-methyl-4-piperidyl)azetidin-1-yl]-5,6-dihydroimidazo[1,2-d][1,4]benzoxazepine], for which the IC50 on p110 delta came out at 0.708 nM.

Regarding `Cc1nc(-c2cn3c(n2)-c2ccc(N4CCC4C4CCN(C)CC4)cc2OCC3)n(C(C)C)n1` (centres unmarked) [Example 308, 2-(2-isopropyl-5-methyl-1,2,4-triazol-3-yl)-9-[2-(1-methyl-4-piperidyl)azetidin-1-yl]-5,6-dihydroimidazo[1,2-d][1,4]benzoxazepine], the IC50 at p110 delta is 0.419 nM.

In turn, `Cc1nc(-c2cn3c(n2)-c2ccc(-c4cnn(C)c4C4CCCN(C(C)(C)CO)C4)cc2OCC3)n(C(C)C)n1` (centres unmarked) [Example 310, 2-[3-[4-[2-(2-isopropyl-5-methyl-1,2,4-triazol-3-yl)-5,6-dihydroimidazo[1,2-d][1,4]benzoxazepin-9-yl]-2-methyl-pyrazol-3-yl]-1-piperidyl]-2-methyl-propan-1-ol] yielded an IC50 at p110 delta of 0.262 nM.

Compound `Cc1nc(-c2cn3c(n2)-c2ccc(-c4cnn(C)c4C4CC(N(C)C)CCO4)cc2OCC3)n(C(C)C)n1` (centres unmarked) [Example 312, 2-[4-[2-(2-isopropyl-5-methyl-1,2,4-triazol-3-yl)-5,6-dihydroimidazo[1,2-d][1,4]benzoxazepin-9-yl]-2-methyl-pyrazol-3-yl]-N,N-dimethyl-tetrahydropyran-4-amine] yielded an IC50 at p110 delta of 0.735 nM.

With `Cc1nc(-c2cn3c(n2)-c2ccc(-c4cnn(C)c4C4CC(N(C)C)CCO4)cc2OCC3)n(C(C)C)n1` (centres unmarked) [Example 329, 2-[4-[2-(2-isopropyl-5-methyl-1,2,4-triazol-3-yl)-5,6-dihydroimidazo[1,2-d][1,4]benzoxazepin-9-yl]-2-methyl-pyrazol-3-yl]-N,N-dimethyl-tetrahydropyran-4-amine], the IC50 at p110 delta was found to be 0.864 nM.

On p110 delta, `Cc1nc(-c2cn3c(n2)-c2ccc(-c4cnn(C)c4C4CC(N(C)C)CCO4)cc2OCC3)n(C(C)C)n1` (centres unmarked) [Example 330, 2-[4-[2-(2-isopropyl-5-methyl-1,2,4-triazol-3-yl)-5,6-dihydroimidazo[1,2-d][1,4]benzoxazepin-9-yl]-2-methyl-pyrazol-3-yl]-N,N-dimethyl-tetrahydropyran-4-amine] returned an IC50 of 0.63 nM.

Regarding `Cc1nc(-c2cn3c(n2)-c2ccc(-c4cnn(C)c4C4CC(N(C)C)CCO4)cc2OCC3)n(C(C)C)n1` (centres unmarked) [Example 363, 2-[4-[2-(2-isopropyl-5-methyl-1,2,4-triazol-3-yl)-5,6-dihydroimidazo[1,2-d][1,4]benzoxazepin-9-yl]-2-methyl-pyrazol-3-yl]-N,N-dimethyl-tetrahydropyran-4-amine], the IC50 at p110 delta was determined as 1.2 nM.
